Measurements published in patent publication US20110028517A1 (LABORATORIOS DEL DR. ESTEVE, S.A., priority 2008, published 2011).

Chains of the proteins cited; added tags and fusions are not shown.
UniProt P47746, whole entry: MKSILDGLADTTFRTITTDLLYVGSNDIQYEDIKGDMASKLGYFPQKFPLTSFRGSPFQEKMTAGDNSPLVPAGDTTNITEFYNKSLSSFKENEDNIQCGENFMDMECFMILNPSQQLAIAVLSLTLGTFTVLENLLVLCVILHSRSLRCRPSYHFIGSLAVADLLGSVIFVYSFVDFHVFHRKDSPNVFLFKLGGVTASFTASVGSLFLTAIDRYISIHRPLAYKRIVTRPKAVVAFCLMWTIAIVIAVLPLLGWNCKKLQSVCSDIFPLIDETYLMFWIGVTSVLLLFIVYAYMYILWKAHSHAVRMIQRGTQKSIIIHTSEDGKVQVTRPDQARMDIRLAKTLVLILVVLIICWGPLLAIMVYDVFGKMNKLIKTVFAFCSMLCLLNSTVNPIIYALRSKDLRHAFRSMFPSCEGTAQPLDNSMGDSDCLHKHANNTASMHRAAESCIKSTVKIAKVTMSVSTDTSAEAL
UniProt P20272, whole entry: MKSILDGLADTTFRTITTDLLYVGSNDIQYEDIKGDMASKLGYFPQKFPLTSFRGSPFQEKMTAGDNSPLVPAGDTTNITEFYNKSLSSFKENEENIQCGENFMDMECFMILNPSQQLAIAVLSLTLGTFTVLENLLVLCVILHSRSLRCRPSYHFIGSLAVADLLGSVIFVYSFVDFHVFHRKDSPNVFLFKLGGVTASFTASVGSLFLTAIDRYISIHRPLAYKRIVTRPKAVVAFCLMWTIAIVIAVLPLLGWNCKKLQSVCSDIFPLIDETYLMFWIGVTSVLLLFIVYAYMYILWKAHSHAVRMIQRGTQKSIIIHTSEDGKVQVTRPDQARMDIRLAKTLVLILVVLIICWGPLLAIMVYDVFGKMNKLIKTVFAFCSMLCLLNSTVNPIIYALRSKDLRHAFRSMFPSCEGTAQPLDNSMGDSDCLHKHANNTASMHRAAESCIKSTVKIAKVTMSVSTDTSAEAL

Experiments:
[1] = molecular target: T1, CB1 receptors present in the CNS (Mus musculus, UniProt P47746); assay: Reversion of the analgesic effect of CP-55,940 in tail flick test in mice; type: in vivo; conditions: 5 mg/kg intraperitoneal
T1 construct: from tissue; host or cells: live CD1 mouse, central nervous system
Method: (§1) Male CD1 mice (Charles River Laboratories), weighting 30 to 40 g (7-8 weeks old) and Male Wistar rats (Charles River Laboratories), weighting 260-300 g (7-8 weeks old) at the time of experiment, were housed in a controlled environment. Temperature was maintained at 22±2° C. on a 12-h light/dark cycle (On at 07:00 h and Off at 19:00 h) and food and water were available ad libitum. The experiments were performed during the light phase. The number of mice ranged from 4 to 15 per group in each individual experiment. Animals were always handled in accordance with ethical principles for the evaluation of pain in conscious animals (Zimmerman, 1983) and with the European Communities Council Directive of 24 November 1986 (86/609/ECC), and received approval by the local Ethical Committee.
(§2) CP-55,940 (Ref. 0949, Tocris; Wiley et al., 1995) was administrated by subcutaneous route at 0.3 mg/kg in a volume of 5 ml/kg in mice and by intraperitoneal route at 0.5 mg/kg in a volume of 2 ml/kg in rat. NESS-0327 (Ruiu et al., 2003) was administrated by intraperitoneal route at 0.3 mg/kg and 1 mg/kg in a volume of 10 ml/kg in mice. […]
(§3) The tail flick test was used to evaluate the antinociceptive effect of compounds. […] A noxious beam of light was focused on the mice tail about 4 cm from its tip, and the tail flick latency was recorded automatically to the nearest 0.1 s. […]

[2] = molecular target: T2, CB1 receptors present in the CNS (Rattus norvegicus, UniProt P20272); assay: Reversion of the analgesic effect of CP-55,940 in tail flick test in rat; type: in vivo; conditions: 10 mg/kg oral
T2 construct: from tissue; host or cells: live Wistar rat, central nervous system
Method: as §1, §2, §3

## Cc1c(C(=O)NN2CCCCC2)nn(-c2ccc(Cl)cc2Cl)c1-c1ccc(Cl)cc1 [Rimonabant, N-(piperidin-1-yl)-5-(4-chlorophenyl)-1-(2,4-dichlorophenyl)-4-methyl-1H-pyrazole-3-carboxamide, reference compound]
[1]; CP-55,940 0.3 mg/kg subcutaneous, FIG. 6
  reversion of the analgesic effect of CP-55,940: significantly reverted
[1]; without CP-55,940
  effect by itself in tail flick test: Neither Rimonabant (5 mg/kg) nor the (4S,5S)-5-(4-chlorophenyl)-1-(2,4-dichlorophenyl)-N-(cis-2,6-dimethylpiperidin-1-yl)-4-methyl-4,5-dihydro-1H-pyrazole-3-carboxamide enantiomer (5 mg/kg) showed an effect by themselves
[2]; CP-55,940 0.5 mg/kg intraperitoneal, FIG. 7
  reversion of the analgesic effect of CP-55,940: significantly reverted
[2]; without CP-55,940
  effect by itself in tail flick test: Neither Rimonabant (10 mg/kg) nor the ((4S,5S)-5-(4-chlorophenyl)-1-(2,4-dichlorophenyl)-N-(cis-2,6-dimethylpiperidin-1-yl)-4-methyl-4,5-dihydro-1H-pyrazole-3-carboxamide enantiomer (10 mg/kg) showed an effect by themselves
